Data on 1 compound can be found in ChEMBL document CHEMBL1136784, “Synthesis and biological evaluation of 14-alkoxymorphinans. 18. N-substituted 14-phenylpropyloxymorphinan-6-ones with unanticipated agonist properties: extending the scope of common structure-activity relationships” (J Med Chem, 2003).

“And” between values parts separate entries of the source, which are not always exact repeats. Equal entries are not always repeated.

The experiment in a line: Selectivity ratio was determined. Also noted: reference not given here.

For `O=C1CC[C@@]2(OCCCc3ccccc3)[C@H]3Cc4ccc(O)c5c4[C@@]2(CCN3CCc2ccccc2)[C@H]1O5`, the Ratio was 0.55 and 1.14.
